Assay results: patent publication US6934639B1, “Methods for designing agents that interact with MMP-13” (Wyeth, priority 2000, dated 2005)

By UniProt entry, the sequences of proteins in these tests, tags left out. Residues count along the entry.
UniProt P14780, 94-707, species assumed: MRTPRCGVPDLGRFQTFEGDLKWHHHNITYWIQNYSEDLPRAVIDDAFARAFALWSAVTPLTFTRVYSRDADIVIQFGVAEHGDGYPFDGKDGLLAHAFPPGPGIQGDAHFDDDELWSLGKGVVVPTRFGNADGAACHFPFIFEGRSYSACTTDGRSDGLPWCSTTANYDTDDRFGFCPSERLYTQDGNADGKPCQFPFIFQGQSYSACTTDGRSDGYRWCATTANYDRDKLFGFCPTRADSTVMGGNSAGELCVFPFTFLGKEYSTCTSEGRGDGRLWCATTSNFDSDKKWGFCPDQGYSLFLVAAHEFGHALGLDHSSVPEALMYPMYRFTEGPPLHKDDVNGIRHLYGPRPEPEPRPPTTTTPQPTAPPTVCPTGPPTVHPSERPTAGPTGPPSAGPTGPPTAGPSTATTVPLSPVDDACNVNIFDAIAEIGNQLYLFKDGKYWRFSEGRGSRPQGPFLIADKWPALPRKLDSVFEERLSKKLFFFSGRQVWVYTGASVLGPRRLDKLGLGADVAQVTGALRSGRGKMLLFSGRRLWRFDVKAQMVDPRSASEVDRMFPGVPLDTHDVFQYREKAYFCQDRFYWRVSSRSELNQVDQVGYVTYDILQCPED
UniProt P78536, 215-824: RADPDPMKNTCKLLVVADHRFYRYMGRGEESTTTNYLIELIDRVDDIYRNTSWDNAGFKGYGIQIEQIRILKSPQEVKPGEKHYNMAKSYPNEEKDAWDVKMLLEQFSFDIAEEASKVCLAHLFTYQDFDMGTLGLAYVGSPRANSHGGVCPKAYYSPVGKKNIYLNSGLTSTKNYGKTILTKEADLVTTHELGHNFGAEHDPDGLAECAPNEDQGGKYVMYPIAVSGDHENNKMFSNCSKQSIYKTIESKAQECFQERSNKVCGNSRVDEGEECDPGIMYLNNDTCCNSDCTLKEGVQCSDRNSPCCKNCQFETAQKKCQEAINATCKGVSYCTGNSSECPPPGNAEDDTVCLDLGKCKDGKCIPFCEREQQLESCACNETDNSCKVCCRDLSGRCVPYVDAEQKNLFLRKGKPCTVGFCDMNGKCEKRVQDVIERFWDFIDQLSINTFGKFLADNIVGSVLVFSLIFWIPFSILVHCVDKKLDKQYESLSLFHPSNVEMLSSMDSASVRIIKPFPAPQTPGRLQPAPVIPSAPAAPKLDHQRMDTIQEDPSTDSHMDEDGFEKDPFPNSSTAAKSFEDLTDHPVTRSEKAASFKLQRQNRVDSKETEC

How the values were obtained:
Type in all cases: biochemical
[1] = target: MMP-9 (Homo sapiens, UniProt P14780); assay: MMP-9 enzyme inhibition (IC50); details: relative to MMP-13, text
[2] = target: T1, MMP-1 (Homo sapiens, UniProt P03956); assay: MMP-1 enzyme inhibition (IC50)
T1 sequence (P03956 100-469): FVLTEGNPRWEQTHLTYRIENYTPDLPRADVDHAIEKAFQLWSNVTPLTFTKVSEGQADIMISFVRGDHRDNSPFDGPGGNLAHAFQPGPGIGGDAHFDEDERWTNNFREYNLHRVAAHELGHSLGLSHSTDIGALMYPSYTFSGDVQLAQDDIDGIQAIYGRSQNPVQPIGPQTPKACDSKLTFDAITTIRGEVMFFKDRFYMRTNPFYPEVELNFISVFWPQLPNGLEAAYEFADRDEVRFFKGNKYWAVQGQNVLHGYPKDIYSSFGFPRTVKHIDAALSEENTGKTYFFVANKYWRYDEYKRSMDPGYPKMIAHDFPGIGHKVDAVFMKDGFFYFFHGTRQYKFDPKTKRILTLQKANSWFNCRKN

[3] = target: TACE (Homo sapiens, UniProt P78536); assay: TACE enzyme inhibition (IC50)

selectivity against MMP-9 [1]: 56 fold | S-1: selectivity, ratio of MMP-1 IC50 with MMP-13 ([2]; MMP-1 IC50 / MMP-13 IC50): >5800 x | selectivity against MMP-1 ([2]; relative to MMP-13, text): > 5800 fold | S-TACE: selectivity, ratio of TACE IC50 with MMP-13 ([3]; TACE IC50 / MMP-13 IC50): >500 x | selectivity against TACE ([3]; relative to MMP-13, text): > 500 fold
SMILES: Cc1cc(C)c(N(Cc2ccccc2)S(=O)(=O)c2ccc(OCCNC(=O)c3cc4ccccc4o3)cc2)c(C(=O)NO)c1 [Compound E, Benzofuran-2-carboxylic acid (2-{4-[benzyl-(2-hydroxycarbamoyl-4,6-dimethyl-phenyl)-sulfamoyl]-phenoxy}-ethyl)-amide]
